Data published in patent publication US20230203485A1, “METHODS FOR MODULATING MHC-I EXPRESSION AND IMMUNOTHERAPY USES THEREOF” (Dana-Farber Cancer Institute, Inc., priority 2020, published 2023).

Columns and labels:
[1] = test system: HLA I surface expression on MCC cell lines; experiment: Flow cytometry for HLA-I surface expression (anti-HLA-ABC, W6/32) in MCC lines at baseline and after interferon or MEK inhibitor treatment; format: cell-based, human; details: two lines (FIG. 1M: MCC-290, MCC-301); 24 hours
Experimental: The overlaid black line plot indicates the percentage of tumor cells that stained positive for HLA-I by IHC of the corresponding original tumor (right y-axis).
FIG. 1M comprises graphs showing the effect of type I and type II interferons on surface MHC I expression in MCC by flow cytometry. 5×10^5 MCC cells were treated with the indicated doses of IFNα2β, IFNβ, or IFNγ for 24 hours. Representative histogram plots show cells stained with anti-HLA class I or isotype antibodies. The experiment was performed in the MCPyV− line MCC-290 (left) and the MCPyV+ line MCC-301 (right).
Cells were dissociated with Versene and incubated with 5 μL Human TruStain FcX (Fc receptor blocking solution; Biolegend, Dedham, Mass.) per million cells in […] at room temperature for 10 min. Fluorochrome-conjugated antibodies or respective isotype controls were immediately added and incubated for another 30 min at 4° C. Cells were then washed once with PBS and resuspended in PBS containing 4% paraformaldehyde and analyzed on LSR Fortessa cytometers. Additional steps were described for individual experiments as below. For upregulation of HLA Class I experiment, 5×10^5 MCC cells were treated with increasing doses of IFNα2b, IFN3, IFNγ for 24 hours, or MEK inhibitors and DMSO for 72 hours before staining with W6/32 and Live/Dead as above.

surface HLA-I = experiment: Interferon treatment of MCC lines, surface HLA-I by flow cytometry; format: cell-based, human; details: two lines
Experimental: Cells were dissociated with Versene and incubated with 5 μL Human TruStain FcX (Fc Receptor Blocking Solution; Biolegend #422302) per million cells in 100 μL at room temperature for 10 min. Fluorophore-conjugated antibodies or respective isotype controls were added and incubated for another 30 min at 4° C. Cells were then washed once with PBS and resuspended in PBS or 4% paraformaldehyde and analyzed on an LSR Fortessa cytometer. For HLA-I and HLA-II detection, the following antibodies were used: HLA-ABC (W6/32 clone) conjugated to PE (BioLegend #311406), APC (BioLegend #311410), or AF647 (Santa Cruz Biotechnology #sc32235 AF647), and HLA-DR-FITC (BioLegend #307604).

“IFN-a-2b: type I interferon, recombinant human” was tested, and the “HLA I surface expression” value [1] was “could be upregulated”.

For IFN-α-2b: interferon alpha-2b, the HLA-I upregulation (surface HLA-I) was “upregulate HLA-I”.

B1: IFN-13: type I interferon (IFNβ in FIG. 1M legend) (protein, UniProt P01574 22-187, looked up)
Interferon beta: MSYNLLGFLQRSSNFQCQKLLWQLNGRLEYCLKDRMNFDIPEEIKQLQQFQKEDAALTIYEMLQNIFAIFRQDSSSTGWNETIVENLLANVYHQINHLKTVLEEKLEKEDFTRGKLMSSLHLKRYYGRILHYLKAKEYSHCAWTIVRVEILRNFYFINRLTGYLRN
B1 was tested, and the “HLA I surface expression” value [1] was “could be upregulated”.

B2: IFN-β: interferon beta (protein, UniProt P01574 22-187, looked up)
Interferon beta: B1 Interferon beta
B2 was tested, and the HLA-I upregulation (surface HLA-I) was “upregulate HLA-I”.
